Assay results from ChEMBL document CHEMBL1131294, “Universal template approach to drug design: polyamines as selective muscarinic receptor antagonists” (J Med Chem, 1998).

Amino acid sequences for entries named in this document (tags omitted). A change or cut given only in a name is not applied to a line headed by its entry.
UniProt P08482: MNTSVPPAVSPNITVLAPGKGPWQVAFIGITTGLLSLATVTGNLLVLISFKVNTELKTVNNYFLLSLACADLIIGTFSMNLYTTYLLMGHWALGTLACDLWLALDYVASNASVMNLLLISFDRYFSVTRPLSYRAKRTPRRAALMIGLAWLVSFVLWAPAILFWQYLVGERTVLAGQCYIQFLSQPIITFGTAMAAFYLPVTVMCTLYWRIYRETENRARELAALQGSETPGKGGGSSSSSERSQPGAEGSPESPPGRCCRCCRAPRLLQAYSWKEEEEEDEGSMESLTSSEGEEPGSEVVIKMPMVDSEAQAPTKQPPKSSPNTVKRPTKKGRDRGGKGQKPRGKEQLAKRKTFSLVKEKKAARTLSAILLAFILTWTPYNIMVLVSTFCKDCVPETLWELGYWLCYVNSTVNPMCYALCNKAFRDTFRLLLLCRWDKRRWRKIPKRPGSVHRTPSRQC

Target: Muscarinic acetylcholine receptor M1 (Rattus norvegicus, UniProt P08482)
Experiment: Binding affinity for rat cortex Muscarinic acetylcholine receptor M1
Method in brief: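 Rat cerebral cortex homogenate (200 µg protein) competed against 5 nM [3H]pirenzepine. Incubation 2 h at 25 °C in 50 mM sodium phosphate pH 7.4 with 2 mM MgCl2 and 1% BSA. Nonspecific binding defined with 10 µM atropine. Filtration on PEI-soaked glass-fiber filters. Ki by Cheng-Prusoff; at least three experiments, each in triplicate.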

## COc1ccccc1CNCCCCCCNCCCCCCCCNCCCCCCNCc1ccccc1OC [METHOCTRAMINE]
  Ki: 41.7 nM
